Earlier results on 28 molecules are cited in PubChem BioAssay AID1811.

Holding throughout (assay): PubChem AID 1811
The target in data set [1] is diaminopimelate decarboxylase. The settings on record: PDB complex binding affinities from literature; Ki when reported.
In the next data set the target is xaa-pro aminopeptidase. The settings on record: PDB complex binding affinities from literature; Ki when reported.
A further data set concerns the target adenosine deaminase. The conditions noted are these: PDB complex binding affinities from literature; IC50 when reported.
The target in data set [2] is phospholipase a2 isoform 3. The conditions noted are these: PDB complex binding affinities from literature; Kd when reported.
Data set [3] concerns the target interferon-inducible gtpase. The settings on record: PDB complex binding affinities from literature; Kd when reported.
Data set [4] has as its target protein-glutamine glutamyltransferase e. The conditions noted are these: PDB complex binding affinities from literature; Kd when reported.
The target of a further data set is 1RYF A. The settings on record: PDB complex binding affinities from literature; Kd when reported.
For data set [5], the target named is elongation factor tu (ef-tu). The conditions noted are these: PDB complex binding affinities from literature; Kd when reported.
For data set [6], the target named is adp-ribosylation factor-like protein 3. The settings on record: PDB complex binding affinities from literature; Kd when reported.
A further data set addresses elongation factor g. The conditions noted are these: PDB complex binding affinities from literature; Kd when reported.
The target of data set [7] is eukaryotic peptide chain release factor gtp. The conditions noted are these: PDB complex binding affinities from literature; Kd when reported.
In the next data set the target is elongation factor 2. The conditions noted are these: PDB complex binding affinities from literature; Kd when reported.
For data set [8], the target named is adenine-n6-dna-methyltransferase taqi. The conditions noted are these: PDB complex binding affinities from literature; Kd when reported.
The next data set has as its target ermc' methyltransferase. The settings on record: PDB complex binding affinities from literature; Ki when reported.
Data set [9] deals with chloramphenicol acetyltransferase iii. The settings on record: PDB complex binding affinities from literature; Ki when reported.
Another data set deals with lysozyme. The conditions noted are these: PDB complex binding affinities from literature; Kd when reported.
In data set [10] the target is phosphonoacetaldehyde hydrolase. The settings on record: PDB complex binding affinities from literature; Ki when reported.
Data set [11] concerns the target hepatocyte growth factor receptor. The settings on record: PDB complex binding affinities from literature; Kd when reported.
In data set [12] the target is serine/threonine-protein kinase chk1. The settings on record: PDB complex binding affinities from literature; Ki when reported.
For data set [13], the target named is proto-oncogene tyrosine-protein kinase src. The conditions noted are these: PDB complex binding affinities from literature; IC50 when reported.
The target in another data set is DNA gyrase b. The conditions noted are these: PDB complex binding affinities from literature; Kd when reported.
Data set [14] concerns the target osmoprotection protein (prox). The conditions noted are these: PDB complex binding affinities from literature; Kd when reported.
The target in another data set is coagulation factor vii. The settings on record: PDB complex binding affinities from literature; IC50 when reported.
Data set [15] concerns the target hiv-1 protease (hiv-1 pr). The settings on record: PDB complex binding affinities from literature; Ki when reported.
The target of another data set is proline-trna synthetase. The settings on record: PDB complex binding affinities from literature; Ki when reported.
Data set [16] has as its target baculoviral iap repeat-containing protein 7. The settings on record: PDB complex binding affinities from literature; Ki when reported.
A further data set has as its target fmn-binding protein. The settings on record: PDB complex binding affinities from literature; Kd when reported.
Another data set addresses nadh oxidase. The conditions noted are these: PDB complex binding affinities from literature; Kd when reported.
A further data set deals with galectin-2. The conditions noted are these: PDB complex binding affinities from literature; Kd when reported.
Data set [17] has as its target histone acetylatransferase pcaf. The settings on record: PDB complex binding affinities from literature; IC50 when reported.
Data set [18] deals with 5(3)-deoxyribonucleotidase. The conditions noted are these: PDB complex binding affinities from literature; Ki when reported.
The next data set concerns the target mta/sah nucleosidase. The conditions noted are these: PDB complex binding affinities from literature; Ki when reported.
The target in data set [19] is a/g-specific adenine glycosylase. The settings on record: PDB complex binding affinities from literature; Kd when reported.
The target in another data set is neocarzinostatin. The conditions noted are these: PDB complex binding affinities from literature; Kd when reported.
For data set [20], the target named is 1-deoxy-d-xylulose 5-phosphate reductoisomerase. The settings on record: PDB complex binding affinities from literature; IC50 when reported.
In the next data set the target is cathepsin g. The conditions noted are these: PDB complex binding affinities from literature; IC50 when reported.
The next data set deals with 1RYH A. The settings on record: PDB complex binding affinities from literature; Kd when reported.
Data set [21] addresses camp-specific phosphodiesterase 4d. The conditions noted are these: PDB complex binding affinities from literature; IC50 when reported.

Structures are written as SMILES.

As to `O=C(O)CCCCCCCC(=O)O`, the Ki in data set [1] is 89 µM.

In the case of `C[C@H](NC(=O)[C@@H]1CCCN1C(=O)[C@@H]1CCCN1C(=O)[C@@H](O)[C@H](N)Cc1ccccc1)C(N)=O`, at xaa-pro aminopeptidase, the inhibition constant (Ki) was 14 µM.

Consider `C[C@H](O)C(CCc1cccc2nc(-c3ccc(Cl)cc3)oc12)n1cnc(C(N)=O)c1` (stereo partly drawn), for which the IC50 at adenosine deaminase is 0.0086 µM.

In the case of `O=C(O)c1cccnc1Nc1cccc(C(F)(F)F)c1`, the Kd in data set [2] was 43 µM.

`Nc1nc2c(ncn2[C@@H]2O[C@H](COP(=O)(O)OP(=O)(O)O)[C@@H](O)[C@H]2O)c(=O)[nH]1`: the Kd in [3] is 0.64 µM; in data set [4], 1.7 µM; on 1RYF A, 0.0016 µM; in data set [5], 1 µM; in [6], 0.024 µM; at elongation factor g it was 11 µM. Further, the Kd in data set [7] was 3.8 µM; on elongation factor 2, 3.9 µM.

As for `Nc1ncnc2c1ncn2[C@@H]1O[C@H](C[C@@H](N)CC[C@H](N)C(=O)O)[C@@H](O)[C@H]1O`, the Kd in data set [8] is 0.34 µM. Further, on ermc' methyltransferase, the Ki was 18 µM.

With `CC(=O)O[C@H]1C[C@@]2(C)[C@@H](C[C@@H](O)[C@H]3[C@@]4(C)CC[C@@H](O)[C@@H](C)[C@@H]4CC[C@@]32C)/C1=C(\CCC=C(C)C)C(=O)O`, the Ki in data set [9] is 5.4 µM.

In the case of `Oc1cccc(Cl)c1`, at lysozyme, the Kd is 56 µM.

For `C=CS(=O)(=O)O`, the Ki in data set [10] is 1790 µM.

Consider `COC(=O)[C@@]1(O)C[C@H]2O[C@]1(C)n1c3ccccc3c3c4c(c5c6ccccc6n2c5c31)C(=O)NC4`, for which the Kd in data set [11] is 0.01 µM.

On to `CN[C@@H]1C[C@H]2O[C@@](C)([C@@H]1OC)n1c3ccccc3c3c4c(c5c6ccccc6n2c5c31)C(=O)NC4=O`, for which the Ki in data set [12] is 0.0056 µM.

As to `CN1CCN(Cc2ccc(C(=O)Nc3cccc(Nc4nccc(-c5cccnc5)n4)c3)cc2)CC1`, the IC50 in data set [13] was 1.63 µM.

In the case of `CO[C@@H]1[C@@H](OC(=O)c2ccc(C)[nH]2)[C@@H](O)[C@H](Oc2ccc3c(O)c(NC(=O)c4ccc(O)c(CC=C(C)C)c4)c(=O)oc3c2Cl)OC1(C)C`, the dissociation constant (Kd) on DNA gyrase b was 0.0012 µM.

For `C[N+]1(C)CCC[C@H]1C(=O)O`, the Kd in [14] was 0.05 µM.

Regarding `CCS(=O)(=O)N[C@H](Cc1ccc(-c2ccccc2)cc1)C(=O)N[C@@H](CCC(N)=O)C(=O)NCc1ccc(C(=N)N)cc1`, the IC50 at coagulation factor vii is 0.093 µM.

For the molecule `CC[C@H](C)[C@H](NC(=O)[C@H](C(C)C)[C@@H](O)[C@H](O)[C@H](CC1CCCCC1)NC(=O)[C@H](Cc1cnc[nH]1)NC(=O)COc1cccc2ccccc12)C(=O)NCc1ccccn1`, the Ki in [15] is < 0.001 µM.

As to `Nc1ncnc2c1ncn2[C@@H]1O[C@H](COS(=O)(=O)NC(=O)[C@@H]2CCCN2)[C@@H](O)[C@H]1O`, the Ki on proline-trna synthetase was 0.05 µM.

In the case of `CC[C@H](C)[C@H](NC(=O)[C@@H]1CCCN1C(=O)[C@@H](NC(=O)[C@H](C)N)C(C)C)C(=O)O`, in data set [16], the Ki is 0.5 µM.

For the molecule `Cc1cc2nc3c(=O)[nH]c(=O)nc-3n(C[C@H](O)[C@H](O)[C@H](O)COP(=O)(O)O)c2cc1C`, the Kd was 0.00043 µM on fmn-binding protein and 0.09 µM at nadh oxidase.

Take `CC(=O)N[C@@H]1[C@@H](O[C@@H]2O[C@H](CO)[C@H](O)[C@H](O)[C@H]2O)[C@@H](O)[C@H](CO)O[C@H]1O`: the Kd on galectin-2 was 62.2 µM.

Take `Cc1ccc(NCCCN)c([N+](=O)[O-])c1`: the IC50 in [17] was 1.6 µM.

As to `Cc1cn([C@H]2C[C@H]3O[C@](c4ccccc4)(P(=O)(O)O)OC[C@H]3O2)c(=O)[nH]c1=O`, the Ki in data set [18] was 70 µM.

For `Nc1ncnc2nc[nH]c12`, on mta/sah nucleosidase, the inhibition constant (Ki) was 300 µM. Also, the Kd in [19] was 0.001 µM.

For the molecule `CN[C@H]1[C@@H](O[C@@H]2/C3=C/C#C[C@H]4O[C@@]4([C@H]4COC(=O)O4)C#CC3=C[C@H]2OC(=O)c2c(O)ccc3c(C)cc(OC)cc23)O[C@H](C)[C@H](O)[C@@H]1O`, the dissociation constant Kd at neocarzinostatin is 0.0001 µM.

For `O=P(O)(O)C(Nc1ccc(Cl)cn1)P(=O)(O)O`, the IC50 in [20] was 7 µM.

As to `O=C(c1ccc2ccccc2c1)[C@@H](c1cccc2ccccc12)P(=O)(O)O`, the half-inhibitory concentration (IC50) at cathepsin g was 4.1 µM.

As to `Nc1nc2c(ncn2[C@@H]2O[C@H](COP(=O)(O)OP(=O)(O)NP(=O)(O)O)[C@@H](O)[C@H]2O)c(=O)[nH]1`, on 1RYH A, the Kd is 0.0276 µM.

For the molecule `COc1cc(-c2ccc(=O)[nH]n2)ccc1OC(F)F`, in [21], the IC50 was 0.16 µM.
